{
  "source": "paper PMC9975673",
  "about": "(Cancer discovery, 2023)",
  "biological_target": "TRKB phosphorylation in BDNF-stimulated Ba/F3 TRKB cells (Homo sapiens, UniProt Q16620)",
  "experiment": "cell-based",
  "data": [
    {"smiles": "CCn1ncc2c1-c1cnc(N)c(c1)O[C@H](C)c1cc(F)ccc1-c1nn(C)nc1C2", "note": "[NVL-520, (19R)-3-ethyl-16-fluoro-10,19-dimethyl-20-oxa-3,4,9,10,11,23-hexaazapentacyclo[19.3.1.0²,⁶.0⁸,¹².0¹³,¹⁸]pentacosa-1(24),2(6),4,8,11,13,15,17,21(25),22-decaen-22-amine]", "values": [
      {"measurement": "IC50", "value": 850, "unit": "nM"}
    ]}
  ]
}
